Measured values published in US20230381333A1, “PHARMACEUTICAL COMPOSITION COMPRISING GLUCAGON/GLP-1/GIP TRIPLE AGONIST OR LONG-ACTING CONJUGATE THEREOF FOR PREVENTING OR TREATING VASCULITIS” (HANMI PHARM CO., LTD., priority 2020, published 2023).

Test system: MRL/Ipr mice
Experiment: Vasculitis disease model, MRL/Ipr mice, gene expression in renal artery
Type: in vivo, mouse
Conditions: conjugate 0.12 mg/kg every 2 days, abatacept 5.7 mg/kg, 10 weeks
Description: MRL/Ipr mice were used to confirm the efficacy of a long-acting triple agonist against vasculitis in a disease model. […] Therefore, the mouse was selected as a vasculitis disease model.
Prepared were: a normal mouse control group administered with excipients; a disease model control group administered with excipients; a control group administered with 5.7 mg/kg of abatacept (Orencia Inc.); and a test group administered with 0.12 mg/kg of the long-acting conjugate of triple agonist. The excipient and the long-acting conjugate of the triple agonist were administered every 2 days, and the experiment was terminated on the 10th week. As the long-acting conjugate of the triple agonist, the long-acting conjugate of the triple agonist prepared according to Example 2 (SEQ ID NO: 42) was used.

abatacept [reference compound]
expression of vascular angiogenic factors MMP-2 and MMP-9 in the renal artery (compared to control group, FIG. 1B): unlike the abatacept-administered group
expression of inflammation-associated genes MCP-1, IL-1β, IL-6, TNF-α in the renal artery (compared to disease model control group, FIG. 1A): significantly reduced
